The list shows a part of the results, in another mix than the full data. Active and inactive are the calls of the source. Rule as the data show it: active = inhibition above about 13%; inactive = the rest.
biological target: Methyl-CpG-binding domain protein 2 (Homo sapiens) (UniProt Q9UBB5); experiment: MBD2-DBD methyl-oligonucleotide interaction blockers – biochemical, TR-FRET, DNA-binding domain, human, primary screen (AID 686964); settings: MBD2 binding to methylated oligonucleotide, at 4.4 µM, active compounds read high

Protein sequences, listed by entry. Tags and fused reporters are not part of them.
UniProt Q9UBB5, whole entry: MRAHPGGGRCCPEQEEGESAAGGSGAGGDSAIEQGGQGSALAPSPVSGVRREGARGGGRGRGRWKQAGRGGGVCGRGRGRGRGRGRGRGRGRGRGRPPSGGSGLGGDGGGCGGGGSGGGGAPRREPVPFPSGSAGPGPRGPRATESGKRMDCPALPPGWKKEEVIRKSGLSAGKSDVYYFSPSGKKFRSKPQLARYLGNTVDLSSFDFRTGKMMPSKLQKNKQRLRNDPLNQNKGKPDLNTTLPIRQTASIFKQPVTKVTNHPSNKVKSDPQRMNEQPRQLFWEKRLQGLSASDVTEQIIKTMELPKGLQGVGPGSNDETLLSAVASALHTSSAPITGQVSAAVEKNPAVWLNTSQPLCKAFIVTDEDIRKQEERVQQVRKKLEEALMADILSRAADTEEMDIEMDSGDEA

Which inhibition does the source give for `Cc1ccc(C)c(NP(C)(=O)Oc2ccccc2)c1` (stereo unspecified) here?
The inhibition was inactive: 2.15%.

With `Cc1cc(C)cc(OP(C)(=O)Nc2ccccn2)c1` (stereo unspecified) as the compound, how does the inhibition read?
The inhibition was inactive: 1.59%.

With `CP(=O)(Nc1cccc(Br)c1)Oc1ccccc1` (stereo unspecified) as the compound, how does the inhibition read?
The inhibition was inactive: -0.94%.

With `O=C(O)c1cccc(Nc2c([N+](=O)[O-])cc([N+](=O)[O-])cc2[N+](=O)[O-])c1` as the compound, how does the inhibition read?
The inhibition was inactive: -6.84%.

How did the inhibition turn out when `CC1=NCCc2c1[nH]c1ccccc21.O=[N+]([O-])c1cc([N+](=O)[O-])c(O)c([N+](=O)[O-])c1` was run?
Its inhibition is inactive: 1.78%.

For `O=[N+]([O-])c1cc([N+](=O)[O-])c(Nc2nnnn2CCO)c([N+](=O)[O-])c1`, which inhibition is on record?
The inhibition was inactive: -15.6%.

With `CCOC(=O)C(CC)C1=NC(C)(C)Cc2ccccc21.O=[N+]([O-])c1cc([N+](=O)[O-])c(O)c([N+](=O)[O-])c1` (stereo unspecified) as the compound, how does the inhibition read?
Its inhibition is inactive: -3.58%.

`COc1ccccc1OP(C)(=O)Nc1c(C)cccc1C` (stereo unspecified) was tested. Which inhibition did it give?
Its inhibition is inactive: 2.92%.

For `CN1CCCCC1COC(=O)C1(O)c2ccccc2CCc2ccccc21` (stereo unspecified), which inhibition is on record?
Its inhibition is inactive: 3.53%.

For `COc1ccc(-c2ccccn2)cc1.O=[N+]([O-])c1cc([N+](=O)[O-])c(O)c([N+](=O)[O-])c1`, which inhibition is on record?
Its inhibition is inactive: -3.68%.

How did the inhibition turn out when `CCCOc1ccc(NP(C)(=O)Oc2ccc(Cl)cc2)cc1` (stereo unspecified) was run?
Its inhibition is inactive: -3.03%.

For `CP(=O)(Nc1ccc(SC(F)(F)F)cc1)Oc1ccccc1` (stereo unspecified), which inhibition is on record?
Its inhibition is inactive: -2.25%.

With `O=[N+]([O-])c1cc([N+](=O)[O-])c(-n2nnc3ccccc32)c([N+](=O)[O-])c1` as the compound, how does the inhibition read?
The inhibition was inactive: 3.79%.

Which inhibition does the source give for `CN(Cc1cccnc1)C(=O)COc1ccc(Cl)c(Cl)c1.O=[N+]([O-])c1cc([N+](=O)[O-])c(O)c([N+](=O)[O-])c1` here?
The inhibition was inactive: -0.23%.

For `O=[N+]([O-])c1cc([N+](=O)[O-])c(-c2cnn(-c3ccccc3)c2)c([N+](=O)[O-])c1`, which inhibition is on record?
The inhibition was inactive: 2.97%.

For `Cc1nc2ccc3ccccc3c2s1.O=[N+]([O-])c1cc([N+](=O)[O-])c(O)c([N+](=O)[O-])c1`, which inhibition is on record?
Its inhibition is inactive: -8.5%.

How did the inhibition turn out when `Cc1cccc(C)c1OP(C)(=O)Nc1ccc(SC(F)(F)F)cc1` (stereo unspecified) was run?
Its inhibition is inactive: -0.16%.

With `CP(=O)(Nc1ccc(SC(F)(F)F)cc1)Oc1ccc(Cl)cc1` (stereo unspecified) as the compound, how does the inhibition read?
The inhibition was inactive: -5.97%.

With `CP(=O)(Oc1ccccc1)OC(c1ccccc1)C(F)(F)F` (stereo unspecified) as the compound, how does the inhibition read?
Its inhibition is inactive: -3.36%.

How did the inhibition turn out when `CP(=O)(NC(=O)Nc1ccccc1)Oc1ccccc1` (stereo unspecified) was run?
The inhibition was inactive: -2.31%.

How did the inhibition turn out when `CCc1ccc(OP(C)(=O)N2CCN(c3ccc([N+](=O)[O-])cc3)CC2)cc1` (stereo unspecified) was run?
The inhibition was inactive: -2.02%.

With `Cc1cc(C)cc(OP(C)(=O)Nc2ccc(SC(F)(F)F)cc2)c1` (stereo unspecified) as the compound, how does the inhibition read?
Its inhibition is inactive: 6.34%.

For `CCOC(=O)c1ccc(NP(C)(=O)Oc2ccc(OC)cc2)cc1` (stereo unspecified), which inhibition is on record?
The inhibition was inactive: -2.09%.

With `O=[N+]([O-])c1cc([N+](=O)[O-])c(O)c([N+](=O)[O-])c1.c1ccc(Oc2ccncc2)cc1` as the compound, how does the inhibition read?
The inhibition was inactive: 5.94%.

With `CCOP(C)(=S)SCC(=O)NC(C)C(=O)O` (stereo unspecified) as the compound, how does the inhibition read?
The inhibition was inactive: -1.86%.

With `CP(=O)(Nc1ccccn1)Oc1ccc(Cl)cc1` (stereo unspecified) as the compound, how does the inhibition read?
The inhibition was inactive: 0.64%.

With `CP(=S)(Nn1cnnc1)Oc1ccccc1` (stereo unspecified) as the compound, how does the inhibition read?
Its inhibition is inactive: -0.7%.

For `CP(=O)(Nc1ccccc1Br)Oc1ccccc1` (stereo unspecified), which inhibition is on record?
Its inhibition is inactive: 1.94%.

How did the inhibition turn out when `COc1ccccc1OP(C)(=O)Nc1ccccc1` (stereo unspecified) was run?
Its inhibition is inactive: -0.04%.

Which inhibition does the source give for `O=[N+]([O-])c1cc([N+](=O)[O-])c(Nc2cccnc2)c([N+](=O)[O-])c1` here?
Its inhibition is inactive: -4.89%.

For `O=[N+]([O-])c1ccc2c(c1)C=Nc1ccccc1O2`, which inhibition is on record?
Its inhibition is inactive: -1.22%.

For `CC(C)(C)c1ccc(OP(C)(=O)Nc2ccc(SC(F)(F)F)cc2)cc1` (stereo unspecified), which inhibition is on record?
Its inhibition is inactive: 4.72%.

With `Cc1cccc(C)c1OP(C)(N)=O` (stereo unspecified) as the compound, how does the inhibition read?
Its inhibition is inactive: -1.92%.

How did the inhibition turn out when `COc1ccccc1OP(C)(=O)Nc1ccc(C)cc1` (stereo unspecified) was run?
Its inhibition is inactive: 4.25%.

`Cc1ccc(NP(C)(=O)Oc2ccccc2)c(C)c1` (stereo unspecified) was tested. Which inhibition did it give?
The inhibition was inactive: 3.56%.

For `CCOC(=O)c1ccc(NP(C)(=O)Oc2ccccc2)cc1` (stereo unspecified), which inhibition is on record?
Its inhibition is inactive: -2.09%.

With `Cc1cc(C)cc(OP(C)(N)=O)c1` (stereo unspecified) as the compound, how does the inhibition read?
The inhibition was inactive: -6.54%.

For `COc1ccccc1OP(C)(=O)Nc1cc(Cl)ccc1C` (stereo unspecified), which inhibition is on record?
The inhibition was inactive: -1.48%.

Which inhibition does the source give for `COc1ccc(OP(C)(=O)Nc2cccc(F)c2)cc1` (stereo unspecified) here?
Its inhibition is inactive: 2.74%.

Which inhibition does the source give for `CCN(CC)CCCOC(=O)C(O)(c1ccccc1)c1ccccc1` here?
The inhibition was inactive: 6.11%.

`COc1ccccc1-c1ccccn1.O=[N+]([O-])c1cc([N+](=O)[O-])c(O)c([N+](=O)[O-])c1` was tested. Which inhibition did it give?
Its inhibition is inactive: -2.91%.

Source: PubChem BioAssay AID686964 (The Scripps Research Institute Molecular Screening Center, 2013)
